From patent US11267811B2, “Small molecule inhibitors of galectin-3” (BRISTOL-MYERS SQUIBB COMPANY, priority 2017, dated 2022)
Where two headings read alike, the source gives them in different places.

Protein sequences, listed by entry. Tags and fused reporters are not part of them.
UniProt P17931, whole entry: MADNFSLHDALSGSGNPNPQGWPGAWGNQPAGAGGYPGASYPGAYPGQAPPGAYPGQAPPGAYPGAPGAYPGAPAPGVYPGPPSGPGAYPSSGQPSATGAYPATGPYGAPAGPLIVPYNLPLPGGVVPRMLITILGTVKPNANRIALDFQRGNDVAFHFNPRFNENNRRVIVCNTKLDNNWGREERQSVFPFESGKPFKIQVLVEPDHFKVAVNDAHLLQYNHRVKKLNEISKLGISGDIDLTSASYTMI

Molecular target: His-tagged recombinant human Gal-3 (hGal-3) (Homo sapiens (Human), UniProt P17931)
Assay: Gal-3 HTRF assay (His-tagged hGal-3 binding to B-ASF);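 further: compounds preincubated 30 min with hGal-3, then 1 h with B-ASF, detection via terbium anti-His antibody and streptavidin d2. Control with B-ASF counts as full signal, omitting B-ASF as background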
[1] = read-out: hGal-3 IC50, HTRF, hGal-3 15 nM, B-ASF 15 nM

Compound | IC50 [1] [nM] | IC50 (read-out: hGal IC50) [nM]
OC[C@H]1O[C@@H](c2ncnn2-c2ccc(Cl)cc2Cl)[C@H](O)[C@@H](n2cc(-c3cc(F)c(F)c(F)c3)nn2)[C@H]1O | 590 | –
Cn1cnc2ccc(-n3cnnc3[C@@H]3O[C@H](CO)[C@H](O)[C@H](n4cc(-c5cc(F)c(F)c(F)c5)nn4)[C@H]3O)cc21 | 30 | –
Cc1nc([C@@H]2O[C@H](CO)[C@H](O)[C@H](n3cc(-c4cc(F)c(Cl)cc4F)nn3)[C@H]2O)n(-c2cc(Cl)ccc2C(F)(F)F)n1 | – | 46
